Assays:
[1] = substrate: COc1cccc2c1C(=O)c1c(O)c3c(c(O)c1C2=O)C[C@@](O)(C(=O)CO)C[C@@H]3OC1CC(NC(=O)OCC2=C(C(=O)O)N3C(=O)[C@@H](NC(=O)Cc4ccccc4)[C@H]3SC2)C(O)C(C)O1; test: The kinetic constant(Km) value as spectrophotometrically by using Enterobacter cloacae P99 beta-lactamase (ECIbL) enzyme as catalyst
Procedure, shortened: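 Initial-velocity kinetics at 23 °C in PBS with 12.5 μg/mL bovine serum albumin. […] Hydrolysis followed by absorbance change at 230 nm or 260 nm, linear over 1 min. Km from direct linear plots, mean of at least three independent experiments.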

[2] = substrate: COc1cccc2c1C(=O)c1c(O)c3c(c(O)c1C2=O)C[C@@](O)(C(=O)CO)C[C@@H]3OC1CC(NC(=O)OCC2=C(C(=O)O)N3C(=O)[C@@H](NC(=O)Cc4ccccc4)[C@H]3SC2)C(O)C(C)O1; test: The kinetic constant(Km) value as spectrophotometrically by using Bacillus cereus beta-lactamase (BCbL) enzyme as catalyst
Procedure, shortened: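 Spectrophotometric hydrolysis at 23 °C in PBS with 12.5 μg/mL BSA. EClbL was used at 0.1 μg/mL; BCbL and ECbL at 1.0 μg/mL. […] Initial velocities were linear over 1 min. Km and kcat came from direct linear plots, as the mean of ≥3 independent runs.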

B1: Beta-lactamase (Enterobacter cloacae), P05364 (protein)
chain: MMRKSLCCALLLGISCSALATPVSEKQLAEVVANTITPLMKAQSVPGMAVAVIYQGKPHYYTFGKADIAANKPVTPQTLFELGSISKTFTGVLGGDAIARGEISLDDAVTRYWPQLTGKQWQGIRMLDLATYTAGGLPLQVPDEVTDNASLLRFYQNWQPQWKPGTTRLYANASIGLFGALAVKPSGMPYEQAMTTRVLKPLKLDHTWINVPKAEEAHYAWGYRDGKAVRVSPGMLDAQAYGVKTNVQDMANWVMANMAPENVADASLKQGIALAQSRYWRIGSMYQGLGWEMLNWPVEANTVVEGSDSKVALAPLPVAEVNPPAPPVKASWVHKTGSTGGFGSYVAFIPEKQIGIVMLANTSYPNPARVEAAYHILEALQ
Km [1]: 46 µM

B2: Metallo-beta-lactamase type 2 (Bacillus cereus), P14488 (protein)
chain: MKNTLLKLGVCVSLLGITPFVSTISSVQAERTVEHKVIKNETGTISISQLNKNVWVHTELGYFSGEAVPSNGLVLNTSKGLVLVDSSWDDKLTKELIEMVEKKFKKRVTDVIITHAHADRIGGMKTLKERGIKAHSTALTAELAKKNGYEEPLGDLQSVTNLKFGNMKVETFYPGKGHTEDNIVVWLPQYQILAGGCLVKSASSKDLGNVADAYVNEWSTSIENVLKRYGNINLVVPGHGEVGDRGLLLHTLDLLK
Km [2]: 38 µM

— ChEMBL document CHEMBL1128301, “Cephalosporin derivatives of doxorubicin as prodrugs for activation by monoclonal antibody-beta-lactamase conjugates” (J Med Chem, 1995)
